Screens: PubChem BioAssay, National Center for Advancing Translational Sciences (NCATS)
PI4K2A block: inhibitors of human PI4K2A; AID 1346378; purified PI4K2A, ADP-Glo luminescence, 1 h; hits give low values; activity change, negative = inhibition, % at 76.9 µM; 420,000 tested, 0.13% active; in the data active means activity change below about -50%; inconclusive means mostly about -30% to -49%;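 further: -100% = wells without enzyme as full effect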
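ADP-Glo luminescence measured ADP generated by PI4K2A enzyme (4 ug/mL before mixing) with 1.2 mM PI substrate (pre-mix) and 300 microM ATP (pre-mix). Tris pH7.5 buffer with MgCl2, Triton X-100; 1 h reaction at ambient temperature.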
miR-21 FLuc: miR-21 reporter, rising signal; Potency, µM (doses to about 38.3 µM), without a hit: at the top dose reporter change, positive = more light; HeLa miR-21 FLuc reporter, luciferase, 48 h; 340,000 tested, under 10 active; active = well fitted rising curve with a large enough effect; inconclusive = small, poorly fitted or top-dose-only effect; inactive = no such curve, though single readings can be large or run the other way;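 further: % of control where 0% means no effect; miR-21 action dims this reporter so a rising signal means less miR-21 action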
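HeLa cells endogenously expressing miR-21, stably carrying CMV-driven firefly luciferase with a downstream miR-21 binding site, 2000 cells/well. Titrations up to approximately 40 uM, 48 hours; luciferase luminescence read.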
Nrf2 activator: Nrf2 pathway activation; AREc32 ARE-luciferase reporter (MCF7-derived line), luminescence, 24 h; Potency, µM (highest dose often 46.1 µM), for the others: at the top dose activation, actives largely listed as activators; 410,000 tested, 0.31% active; AID 624171; further: potency means the concentration at half of the fitted maximal effect; % of control where 0% means no effect; nearly all actives have a fitted effect of over 65% in size
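Luminescent ARE reporter assay in AREc32_Fluc cells: overnight plating at 37 deg C, 24 hr compound incubation, Steady-Glo added, 30 min RT before reading.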
A549 tox-1: A549 cytotoxicity, counter-screen for Nrf2 inhibitors; A549 ARE-Fluc cells, CellTiter-Fluor viability, 18-24 h; Potency, µM (series often up to 46 µM), for the others: at the highest dose activity change, negative = cytotoxicity, hits mostly inhibitors; 390,000 tested, 0.16% active; AID 504648; further: potency means the concentration at half of the fitted maximal effect; on the % scale 0 is the no-effect control and ±100 the full control effect
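A549 ARE_Fluc cells in 5% FBS OPTI-MEM were exposed to compounds in concentration-response for 18-24 h at 37 deg C. Viability was read by CellTiter-Fluor fluorescence (Ex 405/Em 525) after 30 min, before the luciferase read.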
Nrf2 inh: inhibitors of Nrf2 signaling; 360,000 tested, 2.1% active; A549 ARE-Fluc reporter, luciferase luminescence, 18-24 h; AID 504444; Potency, µM (titrated, usually from 46 µM), for inactives: at the highest dose activity change, negative = inhibition, most hits filed as inhibitors; further: potency means the concentration at half of the fitted maximal effect; on the % scale 0 is the no-effect control and ±100 the full control effect; nearly all actives have a fitted effect of over 60% in size
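Cells were seeded and rested 2 h, then exposed to compounds for 18-24 h. CellTiter-Fluor was read first as a viability measure. BugLite was added 15 min before the final luminescent read of ARE-luciferase activity in A549 cells.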
GALK inhibitor: blocks human galactokinase activity; P51570; AID 1868; Purified GALK, Kinase-Glo residual ATP luminescence; 270,000 tested, 0.007% active; Potency, µM (series often up to 57.5 µM), without a hit: top-dose activity change, negative = inhibition, hits mostly inhibitors; further: potency means the concentration at half of the fitted maximal effect; on the % scale 0 is the no-effect control and ±100 the full control effect
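5 nM enzyme, 35 uM ATP, 100 uM galactose, 20 mM HEPES pH8.0, 5 mM MgCl2; 1 h RT; residual ATP by Kinase-Glo Plus luminescence, qHTS format.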
FLuc counter 3: blocks purified firefly luciferase in Nrf2 counterscreen | 1,400 tested, 4% active | shares compounds with Nrf2 inh | purified firefly luciferase, luminescence inhibition | Potency, µM (doses to about 57.5 µM), for inactives: at the highest dose activity change, negative = inhibition, actives largely listed as inhibitors; further: potency means the concentration at half of the fitted maximal effect; on the % scale 0 is the no-effect control and ±100 the full control effect; nearly all actives have a fitted effect of over 65% in size
A549 tox-2: counter-screen for Nrf2 inhibitors: cytotoxicity in A549 ARE cells; Potency, µM (series often up to 46.1 µM), without a hit: top-dose activity change, negative = cytotoxicity, hits mostly inhibitors; A549 ARE-Fluc cells, cytotoxicity counterscreen; AID 720523; shares compounds with Nrf2 inh; 1,400 tested, 2% active;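 further: potency means the concentration at half of the fitted maximal effect; cells exposed to compounds for 18 to 24 hours; on the % scale 0 is the no-effect control and ±100 the full control effect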
ARE-Fluc inh: confirmation of Nrf2 inhibitors in A549 ARE reporter cells; 1,400 tested, 74% active; shares compounds with Nrf2 inh; A549 ARE-firefly luciferase reporter, luminescence; Potency, µM (highest dose often 46.1 µM), for the others: at the highest dose activity change, negative = inhibition, hits mostly inhibitors; further: potency means the concentration at half of the fitted maximal effect; on the % scale 0 is the no-effect control and ±100 the full control effect; nearly all actives have a fitted effect of over 65% in size
An asterisk follows results filed as active; ? = inconclusive; / = no result shown; [ ] = remark or other dose. Only some compounds are listed: those with a hit (about 2.2% of all), similar ones and a draw of the others. Unless noted, the call rests on the fitted dose curve; in most records, active means well fitted curve in the direction sought with a large enough effect; inconclusive means small, poorly fitted or top-dose-only effect, or another doubt; inactive means no such curve, though single readings can be large; an effect the other way counts as inactive or inconclusive.

1: COc1ccccc1C(=O)N1CCCC(c2nc(-c3cccs3)no2)C1 (stereo unspecified)
2: O=C(O)CCSc1nnc(-c2ccc(Cl)cc2Cl)o1
3: CCSc1nnc(-c2ccc(Cl)cc2Cl)o1
4: O=C(O)c1cccc(-n2cccc2/C=C2\NC(=O)N(Cc3ccc(F)cc3)C2=O)c1
5: Cc1ccc(CN2C(=O)N/C(=C\c3cccn3-c3cccc(C(=O)O)c3)C2=O)cc1
6: CSC(=S)NN=C(C)c1cccc(C)n1
Compound	1	2	3	4	5	6
A549 tox-2	/	0%	/	/	-9%	-26%
ARE-Fluc inh	/	0.18µM*	/	/	-8%	/
FLuc counter 3	/	3µM*	/	/	-23%	?
GALK inhibitor	/	/	2%	-7%	-3%	/
Nrf2 inh	/	0.058µM*	?	0%	2.6µM*	4.1µM*
miR-21 FLuc	/	?	-53%	-9%	-16%	/
PI4K2A block	-2	4	0	-1	-25	10
A549 tox-1	/	-4%	17%	-7%	?	?
Nrf2 activator	/	-4%	?	2%	0%	26%

Entries listed so far that bear a hit mark in ARE-Fluc inh:
entry	smiles	ARE-Fluc inh	GALK inhibitor	miR-21 FLuc	PI4K2A block	Nrf2 activator
2	O=C(O)CCSc1nnc(-c2ccc(Cl)cc2Cl)o1	0.18µM*	/	?	4	-4%

(continued)
7: COc1ccccc1NC(=S)OCCN1CCCC12CCC(c1ccccc1)CC2 (stereo unspecified)
8: CCc1ccc(-n2nc3ccc(NC(=O)COc4ccc(OC)cc4)cc3n2)cc1
9: Cc1cc(/C=C(\C#N)C(=O)Nc2ccccc2)c(C)n1-c1ccc(F)cc1
10: Cc1cc(C(=O)O)ccc1-n1c(C)cc(/C=C(/C#N)C(=O)Nc2ccccc2)c1C
11: CCN1CCS/C1=C\C=C\C1=[N+](CC)CCS1
12: COc1ccc(C(O)c2nc3ccccc3n2C)cc1OC (stereo unspecified)
Compound	7	8	9	10	11	12
A549 tox-2	/	7%	/	-7%	?	1%
ARE-Fluc inh	/	-1%	/	?	6.5µM*	?
FLuc counter 3	/	-18%	/	-16%	-10%	0%
GALK inhibitor	/	/	/	-1%	0%	1%
Nrf2 inh	/	1.6µM*	1%	5.8µM*	1.6µM*	3.7µM*
miR-21 FLuc	/	-12%	-18%	-1%	?	17%
PI4K2A block	-5	0	-1	-5	-2	-2
A549 tox-1	/	-6%	-1%	1%	?	-5%[1.84 µM]
Nrf2 activator	/	3%	0%	0%	3%	0%

13: COc1ccc(C(=O)NC(C)c2nc3ccccc3n2C)cc1OC (stereo unspecified)
14: COc1cc(OC)cc(-c2cc3nc(C)c(CCC(=O)NC(C)CCc4ccco4)c(C)n3n2)c1 (stereo unspecified)
15: COc1cc(OC)cc(-c2cc3nc(C)c(CCC(=O)O)c(C)n3n2)c1
16: COc1cc(NCCCCC(C)N)c2nccc(C)c2c1 (stereo unspecified)
17: COc1cc(NCCCC(C)N)c2ncccc2c1 (stereo unspecified)
18: COc1ccc(C#Cc2ccc3c(c2)[C@H]2[C@H](CCN2S(=O)(=O)c2ccccc2F)[C@H](CO)N3C)cc1
Compound	13	14	15	16	17	18
A549 tox-2	/	/	4%	/	-23%	/
ARE-Fluc inh	/	/	2.6µM*	/	?	/
FLuc counter 3	/	/	11µM*	/	-4%	/
GALK inhibitor	2%	0%	1%	/	0%	/
Nrf2 inh	-11%	?	1.5µM*	/	5.8µM*	/
miR-21 FLuc	-2%	18%	?	/	?	/
PI4K2A block	-1	-5	-4	-9	-51*	2
A549 tox-1	-10%	1%	0%	/	?	/
Nrf2 activator	0%	0%	-5%	-6%	-4%	/

19: Cc1nnc(SC(C)C(=O)Nc2ccc(Cl)cn2)n1Cc1ccccc1 (stereo unspecified)
20: CCC(C)C(NC(=O)CCC(=O)OCC(=O)[C@@]1(O)CCC2[C@@H]3CCC4=CC(=O)C=C[C@]4(C)C3[C@@H](O)C[C@@]21C)C(=O)O (stereo partly specified)
21: CCCC1O[C@@H]2CC3C4CCC5=CC(=O)C=C[C@]5(C)C4C(OC(C)=O)C[C@]3(C)[C@]2(C(=O)COC(C)=O)O1 (stereo partly specified)
22: C[C@]12C=CC(=O)C=C1CC[C@@H]1C2[C@@H](O)C[C@@]2(C)C1CC[C@]2(O)C(=O)COC(=O)CCC(=O)O (stereo partly specified)
23: CC(=O)OCC(=O)C1(O)CCC2C3CCC4=CC(=O)C=CC4(C)C3C(O)CC21C (stereo unspecified)
24: Cc1n[nH]c(C)c1S(=O)(=O)NCCc1ccccc1
Compound	19	20	21	22	23	24
A549 tox-2	-2%	-4%	/	0%	-6%	/
ARE-Fluc inh	?	0.21µM*	/	?	0.058µM*	/
FLuc counter 3	-1%	3%	/	-3%	1%	/
GALK inhibitor	8%	-1%	-4%	-2%	-1%	/
Nrf2 inh	9.2µM*	0.18µM*	-27%	0.13µM*	0.029µM*	/
miR-21 FLuc	-1%	-30%	-7%	-31%	-43%	/
PI4K2A block	-9	-1	2	-2	-3	-2
A549 tox-1	?	4%	-19%	-2%	-1%	/
Nrf2 activator	0%	0%	0%	3%	0%	/

25: CCOC(=O)C1=C(CSc2nc3ccccc3s2)NC(=O)NC1c1ccc(OC)cc1 (stereo unspecified)
26: CCOC(=O)C1=C(CSc2nc3ccccc3s2)NC(=O)NC1c1cc(C)ccc1C (stereo unspecified)
27: COc1cccc(/C=C2\CC3(OC(=O)c4ccco4)CCCN2C3)c1 (stereo unspecified)
28: Cc1cccc(C)c1OC1(c2ccccc2)OC(=O)c2ccccc21 (stereo unspecified)
29: Cc1cc(C)c(OC2(c3ccccc3)OC(=O)c3ccccc32)c(C)c1 (stereo unspecified)
30: Cc1cc2oc(=O)cc(CSc3nnc(C)n3N)c2cc1C(C)C
31: Cc1cc2oc(=O)cc(CSc3nnc(-c4cccs4)o3)c2cc1C(C)C
32: CN1[C@H](Cc2ccccc2)COc2cccc(N3CCCC3)c2S1(=O)=O
Compound	25	26	27	28	29	30	31	32
A549 tox-2	?	/	/	/	8%	/	-2%	/
ARE-Fluc inh	/	/	/	/	-3%	/	?	/
FLuc counter 3	-20%	/	/	/	1%	/	-2%	/
GALK inhibitor	1%	0%	/	-1%	1%	-1%	-3%	/
Nrf2 inh	5.8µM*	?	/	?	9.2µM*	/	8.2µM*	/
miR-21 FLuc	25%	18%	/	8%	11%	-14%	-7%	/
PI4K2A block	3	-1	0	4	-7	-7	-3	2
A549 tox-1	?	-6%	/	?	-18%	23%	?	/
Nrf2 activator	0%	5%	/	-1%	0%	0%	0%	/

Quoted at random: two records from the list.
32: CN1[C@H](Cc2ccccc2)COc2cccc(N3CCCC3)c2S1(=O)=O
26: CCOC(=O)C1=C(CSc2nc3ccccc3s2)NC(=O)NC1c1cc(C)ccc1C (stereo unspecified)
Compound	32	26
A549 tox-2	/	/
ARE-Fluc inh	/	/
FLuc counter 3	/	/
GALK inhibitor	/	0%
Nrf2 inh	/	?
miR-21 FLuc	/	18%
PI4K2A block	2	-1
A549 tox-1	/	-6%
Nrf2 activator	/	5%
